# Experimental data from PMC6013488, “A widely-applicable high-throughput cellular thermal shift assay (CETSA) using split Nano Luciferase” (Scientific Reports, 2018).
# Amino acid sequences for entries named in this document (tags omitted).
# UniProt P50750, whole entry: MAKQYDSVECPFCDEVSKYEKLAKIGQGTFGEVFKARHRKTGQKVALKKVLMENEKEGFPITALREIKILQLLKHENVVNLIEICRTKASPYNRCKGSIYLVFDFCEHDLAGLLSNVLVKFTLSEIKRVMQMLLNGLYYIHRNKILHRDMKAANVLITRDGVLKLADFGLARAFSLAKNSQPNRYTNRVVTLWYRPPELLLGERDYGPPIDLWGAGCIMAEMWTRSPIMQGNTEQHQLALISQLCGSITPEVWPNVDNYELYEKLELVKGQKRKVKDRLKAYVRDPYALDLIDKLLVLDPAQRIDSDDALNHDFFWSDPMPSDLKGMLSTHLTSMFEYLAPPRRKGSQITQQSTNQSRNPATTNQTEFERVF
# Biological target: T1, CDK9/cyclin K (Homo sapiens, UniProt P50750)
# T1 construct: purchased Invitrogen (ThermoFisher) PV4335
# Test: TR-FRET Lanthascreen Eu Kinase Binding assay
# Conditions: AC50, concentration at which half maximal activity is observed; 7-point qHTS
row,SMILES,AC50
1,CC(C)c1nn(-c2c(Cl)cccc2Cl)c2nc(Cc3ccc(OCCO)cc3)[nH]c(=O)c12 [Cdk/Crk Inhibitor],1.06e-08 M
2,Cc1ccc(C(N)=O)cc1Nc1nccc(-c2cn(C(C)C)c3cnccc23)n1 [NCGC00263020-01],3.98e-07 M
3,O=C1NCCSc2c1sc1ccc(O)cc21 [kb-NB142-70],1.68e-07 M
4,O=C1OC(/C=C/c2ccccc2)=NC/1=C\c1cccnc1 [TC-DAPK 6],3.36e-07 M
5,CC(C)n1nc(-c2ccc(NC(=O)Nc3cccc(C(F)(F)F)c3)cc2)c2c(N)ncnc21 [AD57 (hydrochloride)],5.97e-07 M
6,NC(=O)c1ccccc1Nc1ccnc(Nc2cccc(O)c2)n1 [DB07268],7.52e-07 M
7,O=C1Nc2ccc(F)cc2/C1=C1\Nc2ccccc2\C1=N\O [5 -Fluoroindirubinoxime],5.32e-07 M
8,"O=C1Nc2ccc3ncsc3c2/C1=C/c1c[nH]cn1 [Compound C16, C16]",8.44e-08 M
9,N#C/C(=C1\Nc2ccccc2S1)c1ccnc(NCCc2cccnc2)n1 [AS601245],3.36e-07 M
10,CCCCNc1ncc(C(=O)NCc2ccc(-n3ccnc3)cc2)c(NC2CCC(O)CC2)n1 (stereo in doubt) [UNC2881],4.74e-07 M
11,CN(C)C/C=C/C(=O)Nc1cccc(C(=O)Nc2ccc(Nc3nccc(-c4cccnc4)n3)cc2)c1 [JNK-IN-7],3.77e-07 M
12,O=[N+]([O-])c1cccc2[nH]c(CNc3nc(N4CCOCC4)nc4c3ncn4-c3ccsc3)nc12 [NCGC00386926-01],3.77e-07 M
13,OCCCNc1cc(-c2ccnc(Nc3cccc(Cl)c3)n2)ccn1 [CGP60474],8.4e-09 M
14,"Cc1n[nH]c2ccc(-c3cncc(OC[C@@H](N)Cc4c[nH]c5ccccc45)c3)cc12 [Compound A-443654, A-443654]",1.68e-07 M
15,Cc1cc(CN2CCN(c3c(Br)cnc4nc(-c5ccc(N6CCN(C)CC6)cc5)[nH]c34)CC2)no1 [CCT137690],5.97e-07 M
16,CC(C)c1cnn2c(NCc3ccccc3)cc(N[C@@H](CO)[C@H](O)CO)nc12 [BS194],1.68e-08 M

row,SMILES,AC50
1,Nc1n[nH]c(N)c1N=Nc1ccc(O)cc1 (stereo in doubt) [CAY10574],4.23e-07 M
2,Oc1cc(CNC(=S)/C=C/c2cc(O)c(O)c(Br)c2)cc(O)c1O [NT 157],6.7e-07 M
3,N#C/C(=C\c1ccc(O)c(O)c1)C(=O)NCCCNC(=O)/C(C#N)=C/c1ccc(O)c(O)c1 [Tyrphostin AG 537],4.74e-07 M
4,O=C(NCc1cccc(O)c1)Nc1nc(-c2ccncc2)cs1 [RKI-1447],1.34e-07 M
5,Cn1cc(C2=C(c3cn(CCCSC(=N)N)c4ccccc34)C(=O)NC2=O)c2ccccc21 [Ro 31-8220 (mesylate)],3.77e-08 M
6,CN(C)c1nc2c(Br)c(Br)c(Br)c(Br)c2[nH]1 [DMAT],4.74e-07 M
7,COc1ccc(-c2cc3nccn3c(Nc3ncccc3C(N)=O)n2)cc1OC [BAY 61-3606 (dihydrochloride)],1.5e-07 M
8,CN[C@H]1CCN(C(=O)c2ccc(Nc3ncc(F)c(-c4cnc(C)n4C(C)C)n3)cc2)C1 [AZD-5597],1.9e-09 M
9,Cc1cc(Nc2cc(NC(=O)c3c(Cl)cccc3Cl)ccn2)nc(N)n1 [RO495],9.47e-08 M
10,COc1ccccc1-c1c[nH]c2ncc(-c3cncc(C(=O)N(C)C)c3)cc12 [PPY A],2.38e-07 M
11,CN(C)CCCn1cc(C2=C(c3c[nH]c4ccccc34)C(=O)NC2=O)c2ccccc21 [GF109203X],9.47e-07 M
12,O=C1Nc2ccc3ncsc3c2/C1=C/Nc1ccc([S+](=O)([O-])Nc2ccccn2)cc1 [GW8510],4.33e-07 M
13,Nc1ncnc2c1c(I)cn2[C@@H]1O[C@H](CO)[C@H](O)C1O (some centres unmarked) [5-Iodotubercidin],1.5e-07 M
14,C[S+](=O)([O-])N1CCC(NC(=O)c2[nH]ncc2NC(=O)c2c(Cl)cccc2Cl)CC1 [NVP-LCQ195],2.99e-08 M
15,O=C1Nc2ccccc2/C1=C1/Nc2ccccc2/C1=N\OCCC(O)CO (centres unmarked) [Indirubin_E8],8.44e-07 M

# Same assay, conditions: Log AC50 (M), logarithm of AC50
row,AC50,SMILES
1,7.94e-07 M,CC(C)[C@H](CO)Nc1nc(Nc2cccc(Cl)c2)c2ncn(C(C)C)c2n1 [Purvalanol A]

# Counter-ions that a name gives are not always drawn.
